Source: patent US11046743B2 (Antaros Medical AB, priority 2015, dated 2021)

Sequences of proteins named here, by UniProt entry; tags and fusion partners are left off. Residues count along the entry.
UniProt P43220, 24-463: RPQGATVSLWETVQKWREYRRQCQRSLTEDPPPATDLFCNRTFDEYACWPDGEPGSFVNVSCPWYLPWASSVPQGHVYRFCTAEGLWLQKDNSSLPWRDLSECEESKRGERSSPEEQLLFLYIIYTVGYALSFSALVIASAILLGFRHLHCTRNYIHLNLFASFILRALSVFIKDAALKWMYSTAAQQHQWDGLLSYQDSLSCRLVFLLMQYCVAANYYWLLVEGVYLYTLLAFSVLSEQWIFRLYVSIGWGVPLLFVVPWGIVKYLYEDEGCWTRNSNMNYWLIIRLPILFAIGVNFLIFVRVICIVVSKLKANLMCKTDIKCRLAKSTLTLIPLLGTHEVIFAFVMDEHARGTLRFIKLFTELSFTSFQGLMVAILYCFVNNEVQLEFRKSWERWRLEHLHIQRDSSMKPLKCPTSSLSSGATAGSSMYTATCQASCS
UniProt P47871, 26-477: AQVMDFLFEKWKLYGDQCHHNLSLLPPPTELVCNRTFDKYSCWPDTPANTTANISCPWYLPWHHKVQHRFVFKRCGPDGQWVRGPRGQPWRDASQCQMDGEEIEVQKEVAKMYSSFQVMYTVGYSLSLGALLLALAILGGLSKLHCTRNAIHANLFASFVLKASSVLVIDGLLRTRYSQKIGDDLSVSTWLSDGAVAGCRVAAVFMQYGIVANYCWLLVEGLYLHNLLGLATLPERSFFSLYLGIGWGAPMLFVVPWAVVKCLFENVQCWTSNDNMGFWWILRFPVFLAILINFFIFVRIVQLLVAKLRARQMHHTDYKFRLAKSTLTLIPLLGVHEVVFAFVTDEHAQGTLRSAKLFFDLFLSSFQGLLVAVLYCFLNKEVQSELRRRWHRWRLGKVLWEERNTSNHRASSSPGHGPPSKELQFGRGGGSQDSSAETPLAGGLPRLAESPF

How the values were obtained:
[1] = molecular target: T1, human GLP-1 receptor (hGLP-1 R) (Homo sapiens, UniProt P43220); assay: cAMP response (HTRF) of HEK-293 cells stably expressing human GLP-1 receptor; assay type: cell-based
T1 construct: expressed in transfected cells; host or cells: HEK-293

[2] = molecular target: T2, human glucagon receptor (hGLUC R) (Homo sapiens, UniProt P47871); assay: cAMP response (HTRF) of HEK-293 cells stably expressing human glucagon receptor; assay type: cell-based
T2 construct: expressed in transfected cells; host or cells: HEK-293

Row | SMILES | EC50 [1] | EC50 [2]
1 | CC[C@H](C)[C@H](NC(=O)[C@H](Cc1ccccc1)NC(=O)[C@H](CCC(=O)O)NC(=O)[C@H](CCC(N)=O)NC(=O)[C@H](C)NC(=O)[C@H](CCCNC(=N)N)NC(=O)[C@H](CSCCS(=O)(=O)CCN1CCN(CC(=O)O)CCN(CC(=O)O)CCN(CC(=O)O)CC1)NC(=O)[C@H](CO)NC(=O)[C@H](CCC(=O)O)NC(=O)[C@H](CC(C)C)NC(=O)[C@H](CCC(N)=O)NC(=O)[C@H](CCCCN)NC(=O)[C@H](CO)NC(=O)[C@H](Cc1ccc(O)cc1)NC(=O)[C@H](CC(=O)O)NC(=O)[C@H](CO)NC(=O)[C@@H](NC(=O)[C@H](Cc1ccccc1)NC(=O)[C@@H](NC(=O)CNC(=O)[C@H](CCC(N)=O)NC(=O)[C@H](CO)NC(=O)[C@@H](N)Cc1cscn1)[C@@H](C)O)[C@@H](C)O)C(=O)N[C@@H](CCC(=O)O)C(=O)N[C@@H](Cc1c[nH]c2ccccc12)C(=O)N[C@@H](CC(C)C)C(=O)N[C@@H](CC(C)C)C(=O)N[C@@H](C)C(=O)NCC(=O)NCC(=O)N1CCC[C@H]1C(=O)N[C@@H](CCC(=O)O)C(=O)N[C@@H](CO)C(=O)NCC(=O)N[C@@H](C)C(=O)N1CCC[C@H]1C(=O)N1CCC[C@H]1C(=O)N1CCC[C@H]1C(=O)N[C@@H](CO)C(N)=O [compound 41] | 4.06 nM | 0.0026 nM
2 | CC[C@H](C)[C@H](NC(=O)[C@H](Cc1ccccc1)NC(=O)[C@H](CCC(=O)O)NC(=O)[C@H](CCC(N)=O)NC(=O)[C@H](C)NC(=O)[C@H](CCCNC(=N)N)NC(=O)[C@H](CCCNC(=N)N)NC(=O)[C@H](CO)NC(=O)[C@H](CCC(=O)O)NC(=O)[C@H](CSCCS(=O)(=O)CCN1CCN(CC(=O)O)CCN(CC(=O)O)CCN(CC(=O)O)CC1)NC(=O)[C@H](CCC(N)=O)NC(=O)[C@H](CCCCN)NC(=O)[C@H](CO)NC(=O)[C@H](Cc1ccc(O)cc1)NC(=O)[C@H](CC(=O)O)NC(=O)[C@H](CO)NC(=O)[C@@H](NC(=O)[C@H](Cc1ccccc1)NC(=O)[C@@H](NC(=O)CNC(=O)[C@H](CCC(N)=O)NC(=O)[C@H](CO)NC(=O)[C@@H](N)Cc1cscn1)[C@@H](C)O)[C@@H](C)O)C(=O)N[C@@H](CCC(=O)O)C(=O)N[C@@H](Cc1c[nH]c2ccccc12)C(=O)N[C@@H](CC(C)C)C(=O)N[C@@H](CC(C)C)C(=O)N[C@@H](C)C(=O)NCC(=O)NCC(=O)N1CCC[C@H]1C(=O)N[C@@H](CCC(=O)O)C(=O)N[C@@H](CO)C(=O)NCC(=O)N[C@@H](C)C(=O)N1CCC[C@H]1C(=O)N1CCC[C@H]1C(=O)N1CCC[C@H]1C(=O)N[C@@H](CO)C(N)=O [compound 39] | 14.1 nM | 0.0266 nM
3 | CCCC[C@H](NC(=O)[C@H](CCC(N)=O)NC(=O)[C@H](CCCCN)NC(=O)[C@H](CO)NC(=O)[C@H](CC(C)C)NC(=O)[C@H](CC(=O)O)NC(=O)[C@H](CO)NC(=O)C(C)(C)NC(=O)[C@H](Cc1ccccc1)NC(=O)[C@@H](NC(=O)CNC(=O)[C@H](CCC(N)=O)NC(=O)[C@H](CO)NC(=O)[C@@H](N)Cc1cscn1)[C@@H](C)O)C(=O)N[C@@H](CCC(=O)O)C(=O)N[C@@H](CO)C(=O)N[C@@H](CCCNC(=N)N)C(=O)N[C@@H](CCCNC(=N)N)C(=O)N[C@@H](C)C(=O)N[C@@H](CCC(N)=O)C(=O)N[C@@H](CC(=O)O)C(=O)N[C@@H](Cc1ccccc1)C(=O)N[C@H](C(=O)N[C@@H](CCC(=O)O)C(=O)N[C@@H](Cc1c[nH]c2ccccc12)C(=O)N[C@@H](CC(C)C)C(=O)N[C@@H](CC(C)C)C(=O)N[C@@H](C)C(=O)N[C@H](C(=O)NCC(=O)N1CCC[C@H]1C(=O)N[C@@H](CCC(=O)O)C(=O)N[C@@H](CO)C(=O)NCC(=O)N[C@@H](C)C(=O)N1CCC[C@H]1C(=O)N1CCC[C@H]1C(=O)N1CCC[C@H]1C(=O)N[C@@H](CO)C(=O)N[C@@H](CSCCS(=O)(=O)CCN1CCN(CC(=O)O)CCN(CC(=O)O)CCN(CC(=O)O)CC1)C(N)=O)[C@@H](C)O)[C@@H](C)CC [compound 13] | 143 nM | 0.0048 nM
